Data published in ChEMBL document CHEMBL4725425, “Discovery of A-1331852, a First-in-Class, Potent, and Orally-Bioavailable BCL-X Inhibitor” (ACS Med Chem Lett, 2020).

Chains of the proteins cited; added tags and fusions are not shown.
UniProt Q07817, whole entry: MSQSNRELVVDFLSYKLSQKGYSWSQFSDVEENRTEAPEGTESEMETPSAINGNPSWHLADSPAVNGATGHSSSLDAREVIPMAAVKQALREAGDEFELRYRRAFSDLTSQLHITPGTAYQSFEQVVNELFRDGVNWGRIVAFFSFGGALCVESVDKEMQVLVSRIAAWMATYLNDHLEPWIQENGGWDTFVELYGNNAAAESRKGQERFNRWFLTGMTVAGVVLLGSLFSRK
UniProt P10415, whole entry: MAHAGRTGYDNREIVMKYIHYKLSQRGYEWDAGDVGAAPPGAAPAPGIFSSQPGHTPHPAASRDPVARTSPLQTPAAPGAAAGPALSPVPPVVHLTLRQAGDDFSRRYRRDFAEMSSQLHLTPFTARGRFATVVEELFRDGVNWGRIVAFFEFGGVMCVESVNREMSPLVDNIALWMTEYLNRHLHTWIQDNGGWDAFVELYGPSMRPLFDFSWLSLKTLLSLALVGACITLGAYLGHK

How the values were obtained:
Bcl-2-like protein 1 = Bcl-2-like protein 1 (Homo sapiens, UniProt Q07817); assay: Inhibition of F-Bak (GQVGRQLAIIGDK(6-FAM)INR-amide probe binding to BCL-xl (unknown origin) incubated for 1 hr by TR-FRET assay
[1] = molecular target: Apoptosis regulator Bcl-2 (Homo sapiens, UniProt P10415); assay: Inhibition of F-Bak (GQVGRQLAIIGDK(6-FAM)INR-amide) F-Bak(GQVGRQLAIIGDK(6-FAM)INR-amide) binding to BCL2 (unknown origin) incubated for 1 hr by TR-FRET assay

Row | Structure (SMILES) | Ki (Bcl-2-like protein 1) | Ki [1]
1 | O=C(Nc1nc2ccccc2s1)c1cccc2c1CN(c1ccc(-c3ccn(Cc4ccccc4)c3)c(C(=O)O)n1)CC2 | 0.329 nM | –
2 | Cc1c(-c2ccc(N3CCc4cccc(C(=O)Nc5nc6ccccc6s5)c4C3)nc2C(=O)O)cnn1CC1CCCCC1 | 0.008 nM | 28.5 nM
